{"source": "PubChem BioAssay AID1508623", "about": "(National Center for Advancing Translational Sciences (NCATS), 2021)", "note": "This is a selection; strong and weak results do not stand in their true shares. Inconclusive results are not listed. Activity calls are given as the source filed them. Calls follow the shape of the dose curve; as a rule, active = well fitted inhibition curve with a large enough effect; inconclusive = small, poorly fitted or top-dose-only effect; inactive = no such curve, though single readings can be large or run the other way."}
{"assay": "Primary qHTS for Identification of Small Molecule Inhibitors of Huntingtin Promoter Activity; also: nearly all actives have a fitted effect of over 50% in size", "details": "HEK293 HTT promoter firefly luciferase reporter (activity 0% = vehicle and -100% = no light), 24 h; at 57.5 µM (top of the series)", "source_text": "Assay Provider: Russell L. Margolis M.D.\nDepartment Neurology, Johns Hopkins University School of Medicine, Baltimore, MD\nHuntington's Disease (HD) is a neurodegenerative disorder caused by a CAG repeat expansion in exon 1 of huntingtin (HTT). While there are currently no disease-modifying treatments for HD, recent efforts have focused on development of nucleotide-based therapeutics to lower HTT expression. As an alternative to siRNA or oligonucleotide methods, we hypothesized that suppression of HTT expression might be accomplished by small molecules that either (1) directly decrease HTT expression by suppressing HTT promoter activity or (2) indirectly decrease HTT expression by increasing the promoter activity of HTT-AS, the gene antisense to HTT that appears to inhibit expression of HTT.\nWe developed and employed a high throughput screen for modifiers of HTT and HTT-AS promoter activity using luminescent reporter HEK293 cells; of the 52,041 compounds tested, we identified 898 replicable hits. We used a rigorous stepwise approach to assess compound toxicity and the capacity of the compounds to specifically lower huntingtin protein in 5 different cell lines, including HEK293 cells, HD lymphoblastoid cells, mouse primary neurons, HD iPSCs differentiated into cortical-like neurons, and HD hESCs. We found no compounds which were able to lower huntingtin without lowering cell viability in all assays, though the potential efficacy of a few compounds at non-toxic doses could not be excluded.\nSEQUENCE No. (1, 2, 3, etc.); […] (e.g., Cells, Incubation, Reagent, etc.); VALUE and DESCRIPTION.\n1; Reagent; 4 uL; 2,500 Hek293 luciferase reporter cells per wells\n3; Compound; 23 nL; Control inhibitor / compound library\n5; Reagent; 2.5 uL; Firefly Luc reagent; Dual-Glo Luciferase Reporter Assay System (Promega)\n6; Time; 10 min; room temperature incubation\n7; Detection; Luminescence; FLuc\nNOTES (numbers refer to sequence above)\n1; High-throughput screening, measuring luminescence from a Hek293 luciferase reporter, was performed in 1,536 well white-walled tissue-culture treated plates. 2,500 cells were plated in 4 µL of Opti-MEM per well using a Multidrop Combi Reagent Dispenser (ThermoFisher).\n2; Assay plates were cultured for 24 hours.\n3; Control inhibitor (PTC124; final concentration of 50 uM) and compound library (at final concentrations of 460 nM - 57.5 uM) were added to the assay plate using the Kalypsis Pintool Robotic System equipped with 1536 pinheads.\n4; Cells were then incubated for 24 hours at 37 degrees C prior to luminescence measurements.\n5; In all cases, luminescence was measured using the Dual-Glo Luciferase Reporter Assay System (Promega) following the manufacturer's instructions.\n6; Room temperature incubation.\n7; Luminescence signal was obtained using the PerkinElmer ViewLux plate reader. Results were normalized to vehicle control (0% activity) and zero RLU (-100% activity)."}
{"smiles": "CCOC(=O)C(=O)CBr", "activity change, negative = inhibition": "inactive: -2.96%"}
{"smiles": "COc1ccccc1C(=O)NCC1(N2CCOCC2)CCCCC1", "activity change, negative = inhibition": "inactive: -5.9%"}
{"smiles": "O=C(NCC1(N2CCOCC2)CCCCC1)c1ccc(Cl)cc1", "activity change, negative = inhibition": "inactive: -5.75%"}
{"smiles": "CCOC(=O)N1CCC(=O)CC1", "activity change, negative = inhibition": "inactive: 1.2%"}
{"smiles": "CCCCOc1ccccc1C(=O)NCC1(N2CCOCC2)CCCCC1", "activity change, negative = inhibition": "inactive: -20.8%"}
{"smiles": "O=C(NCC1(N2CCOCC2)CCCCC1)c1ccccc1Br", "activity change, negative = inhibition": "inactive: -12.8%"}
{"smiles": "CCCOc1cccc(C(=O)NCC2(N3CCOCC3)CCCCC2)c1", "activity change, negative = inhibition": "inactive: -18.1%"}
{"smiles": "CCOc1ccc(C(=O)NCC2(N3CCOCC3)CCCCC2)cc1", "activity change, negative = inhibition": "inactive: -14%"}
{"smiles": "O=C(NCC1(N2CCOCC2)CCCCC1)c1ccccc1", "activity change, negative = inhibition": "inactive: -7.8%"}
{"smiles": "O=C(NCC1(N2CCOCC2)CCCCC1)c1ccc([N+](=O)[O-])cc1", "activity change, negative = inhibition": "inactive: -15.1%"}
{"smiles": "O=C(NCC1(N2CCOCC2)CCCCC1)c1ccccc1[N+](=O)[O-]", "activity change, negative = inhibition": "inactive: -6.72%"}
{"smiles": "CCC(=O)N(c1ccccc1)C1CCNCC1", "activity change, negative = inhibition": "inactive: -3.47%"}
{"smiles": "COc1cc(C(=O)NCC2(N3CCOCC3)CCCCC2)cc(OC)c1OC", "activity change, negative = inhibition": "inactive: -12%"}
{"smiles": "CC(C)(C)c1ccc(C(=O)NCC2(N3CCOCC3)CCCCC2)cc1", "activity change, negative = inhibition": "inactive: -18.5%"}
{"smiles": "Cc1ccccc1C(=O)NCC1(N(C)C)CCCCC1", "activity change, negative = inhibition": "inactive: -8.43%"}
{"smiles": "CN(C)C1(CNC(=O)c2ccc(C(C)(C)C)cc2)CCCCC1", "activity change, negative = inhibition": "inactive: -13.2%"}
